Earlier results on 1 substance are cited in patent US5028692A, “Gastrin releasing peptide antagonist” (Merck & Co., Inc., priority 1989, dated 1991).

Amino acid sequences for entries named in this document (tags omitted). A change or cut given only in a name is not applied to a line headed by its entry.
UniProt P30550: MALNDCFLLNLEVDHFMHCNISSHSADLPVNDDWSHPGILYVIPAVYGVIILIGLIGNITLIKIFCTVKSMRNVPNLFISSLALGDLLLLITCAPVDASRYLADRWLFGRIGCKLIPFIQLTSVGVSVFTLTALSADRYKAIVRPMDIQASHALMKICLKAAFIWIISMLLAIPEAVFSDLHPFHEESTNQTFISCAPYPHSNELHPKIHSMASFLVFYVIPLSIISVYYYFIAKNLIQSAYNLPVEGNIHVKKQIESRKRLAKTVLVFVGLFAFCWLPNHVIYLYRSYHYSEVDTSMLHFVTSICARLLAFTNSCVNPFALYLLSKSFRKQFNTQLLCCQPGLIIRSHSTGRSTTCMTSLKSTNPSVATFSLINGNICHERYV
UniProt P21729: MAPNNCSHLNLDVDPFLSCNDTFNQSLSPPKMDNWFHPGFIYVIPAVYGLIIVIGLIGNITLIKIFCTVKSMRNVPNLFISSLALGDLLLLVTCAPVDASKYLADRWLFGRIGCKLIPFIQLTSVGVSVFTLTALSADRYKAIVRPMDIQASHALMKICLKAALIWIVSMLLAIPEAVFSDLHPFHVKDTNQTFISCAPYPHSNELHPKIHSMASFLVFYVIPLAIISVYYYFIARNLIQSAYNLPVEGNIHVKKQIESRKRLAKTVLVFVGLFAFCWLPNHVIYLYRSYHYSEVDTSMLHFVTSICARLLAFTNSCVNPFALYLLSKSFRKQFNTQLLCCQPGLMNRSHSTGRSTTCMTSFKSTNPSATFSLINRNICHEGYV

In data set [1] the target is bombesin receptor (Homo sapiens, UniProt P30550).
Data set [2] has as its target T1, bombesin receptor (Mus musculus, UniProt P21729).
T1 construct: host or cells: Swiss 3T3 cells (endogenous receptor)
The conditions noted are these: Swiss 3T3 cells.

In the case of [Leu^14 -.PSI.-CH2 NH-Leu^13 ] bombesin, the “improvement in binding affinity compared to previously reported bombesin receptor antagonists” value at bombesin receptor [1] was 100 fold. In addition, the bombesin receptor antagonism entry on bombesin receptor [2] is recorded as “specific bombesin receptor antagonist”.
